Results published in US8765641B2, “Chip production, hybridization and data interpretation for antibody and protein microarrays” (Detroit R&D, Inc., priority 2004, dated 2014).

Experiments:
CYP2B1/2B2 = settings: rat liver microsomes+cytosol, PB 100 mg/kg/day for 3 days, 500 μg/ml IgG spots, Flag-normalized
CYP3A (CYP3A1/2/23) = settings: rat liver microsomes+cytosol, PB 100 mg/kg/day for 3 days
Calpain = settings: rat liver microsomes+cytosol, PB 100 mg/kg/day for 3 days
CYP2D = settings: rat liver microsomes+cytosol, PB 100 mg/kg/day for 3 days, 500 μg/ml IgG spots
[1] = 50 μg/ml IgG spots (anti-serum)

Compound: CCC1(c2ccccc2)C(=O)NC(=O)NC1=O [phenobarbital]
- Fold-Change of Protein Expression Level after PB treatment, CYP2B1/2B2 (CYP2B1/2B2): 9.7 fold
- Fold-Change of Protein Expression Level after PB treatment, CYP2B1/2B2 (CYP2B1/2B2; listed as PB): 9.7 fold and 9.70^a fold
- Fold-Change of Protein Expression Level after PB treatment, CYP3A (CYP3A (CYP3A1/2/23); [1]): 2.6 fold
- Fold-Change of Protein Expression Level after PB treatment, CYP3A (CYP3A (CYP3A1/2/23); 500 μg/ml IgG spots (anti-serum)): 2.1 fold
- Fold-Change of Protein Expression Level after PB treatment, CYP3A (CYP3A (CYP3A1/2/23); 500 μg/ml IgG spots (anti-serum), listed as PB): 2.1 fold and 2.10 fold
- Fold-Change of Protein Expression Level after PB treatment, Calpain (Calpain; 5 μg/ml IgG spots (anti-serum)): 2.5 fold
- Fold-Change of Protein Expression Level after PB treatment, Calpain (Calpain; [1]): 2.5 fold
- Fold-Change of Protein Expression Level after PB treatment, CYP2D (CYP2D): 2.1 fold
- Fold-Change of Protein Expression Level after PB treatment, CYP2D (CYP2D; listed as PB): 2.1 fold and 2.10 fold

Values joined by “and” are separate entries in the source; they are usually repeats but may differ in a detail not shown here. Equal entries are not always repeated. Where two headings read alike, the source gives them in different places.
